Test results as given in publication PMC2989642 (The European journal of neuroscience, 2010).

Chains of the proteins cited; added tags and fusions are not shown. Residues count along the entry.
UniProt Q8R493, 21-495: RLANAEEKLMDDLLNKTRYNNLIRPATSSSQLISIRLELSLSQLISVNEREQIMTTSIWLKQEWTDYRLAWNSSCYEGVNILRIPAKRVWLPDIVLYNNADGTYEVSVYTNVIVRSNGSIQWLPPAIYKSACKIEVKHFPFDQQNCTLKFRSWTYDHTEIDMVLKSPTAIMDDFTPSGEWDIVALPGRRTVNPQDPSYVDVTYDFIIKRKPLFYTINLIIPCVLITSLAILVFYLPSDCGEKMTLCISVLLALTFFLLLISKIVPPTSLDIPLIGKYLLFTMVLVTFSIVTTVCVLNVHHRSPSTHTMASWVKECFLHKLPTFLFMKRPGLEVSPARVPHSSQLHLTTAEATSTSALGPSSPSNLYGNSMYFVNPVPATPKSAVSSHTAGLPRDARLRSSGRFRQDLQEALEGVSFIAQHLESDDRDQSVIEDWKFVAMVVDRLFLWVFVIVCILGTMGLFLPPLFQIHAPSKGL
UniProt Q8R4G9, 26-499: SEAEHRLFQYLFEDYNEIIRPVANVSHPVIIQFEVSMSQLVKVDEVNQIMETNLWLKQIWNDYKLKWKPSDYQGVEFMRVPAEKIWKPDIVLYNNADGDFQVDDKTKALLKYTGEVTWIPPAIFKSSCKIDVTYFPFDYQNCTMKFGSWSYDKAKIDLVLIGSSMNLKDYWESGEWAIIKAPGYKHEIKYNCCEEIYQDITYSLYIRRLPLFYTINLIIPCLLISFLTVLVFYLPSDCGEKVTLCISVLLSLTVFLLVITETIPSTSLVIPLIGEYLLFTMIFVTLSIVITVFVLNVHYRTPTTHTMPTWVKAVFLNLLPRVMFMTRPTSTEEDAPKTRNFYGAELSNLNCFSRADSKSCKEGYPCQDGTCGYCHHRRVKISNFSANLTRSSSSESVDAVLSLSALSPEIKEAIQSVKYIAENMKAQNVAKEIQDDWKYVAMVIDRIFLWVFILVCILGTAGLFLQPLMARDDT

Molecular target: α3β4 receptors (in the α5β2 KO) (Mus musculus, UniProt Q8R493+Q8R4G9)
Type: cell-based

For `CN1CCC[C@H]1c1cccnc1` [Nicotine, nicotine], the Hill coefficient was 1.68 ± 0.06.
